{
  "sequences": {"note": "Chains of the proteins cited; added tags and fusions are not shown. Residues count along the entry.", "UniProt Q06187, 402-655 limits assumed": "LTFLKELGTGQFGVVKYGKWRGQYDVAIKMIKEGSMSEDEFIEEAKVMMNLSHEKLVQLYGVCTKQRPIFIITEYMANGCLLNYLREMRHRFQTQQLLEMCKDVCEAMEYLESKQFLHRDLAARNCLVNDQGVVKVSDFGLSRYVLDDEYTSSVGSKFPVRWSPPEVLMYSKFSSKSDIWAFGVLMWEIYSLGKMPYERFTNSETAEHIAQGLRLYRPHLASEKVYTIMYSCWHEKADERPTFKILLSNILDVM"},
  "source": "paper PMC8662641",
  "about": "“Site-Specific Labeling of Endogenous Proteins Using CoLDR Chemistry” (Journal of the American Chemical Society, 2021)",
  "key": {"BTK-ibrutinib": {"target": "BTK-ibrutinib (Homo sapiens, UniProt Q06187)", "experiment": "SPR, ibrutinib-labeled BTK flowed over immobilized 1r", "settings": "BTK-ibrutinib over immobilized 1r"}, "BTK-1b": {"target": "BTK-1b (Homo sapiens, UniProt Q06187)", "experiment": "SPR, 1b-labeled BTK flowed over immobilized 1r"}, "BTK": {"target": "BTK (Homo sapiens, UniProt Q06187)", "experiment": "SPR, free BTK flowed over immobilized 1r"}},
  "data": [
    {"smiles": "NCCOCCOCCOCCOCCOCCC(=O)NCCOCCOCCOCCOCCOCCC(=O)N1CCC[C@@H](n2nc(-c3ccc(Oc4ccccc4)cc3)c3c(N)ncnc32)C1", "values": [
      {"measurement": "binding to 1r", "setting": "BTK-ibrutinib", "value": "does not show any binding"},
      {"measurement": "Kd", "setting": "BTK-1b; BTK-1b binding immobilized 1r", "value": 0.018, "unit": "µM"},
      {"measurement": "Kd", "setting": "BTK-1b; BTK-1b over immobilized 1r", "value": 0.0187, "unit": "µM"},
      {"measurement": "ka", "setting": "BTK-1b; BTK-1b over immobilized 1r", "value": 176000, "unit": "M⁻¹ s⁻¹"},
      {"measurement": "kd", "setting": "BTK-1b; BTK-1b over immobilized 1r", "value": 0.003287, "unit": "s⁻¹"},
      {"measurement": "Kd", "setting": "BTK; free BTK binding immobilized 1r", "value": 0.015, "unit": "µM"},
      {"measurement": "Kd", "setting": "BTK; free BTK over immobilized 1r", "value": 0.0151, "unit": "µM"},
      {"measurement": "ka", "setting": "BTK; free BTK over immobilized 1r", "value": 90400, "unit": "M⁻¹ s⁻¹"},
      {"measurement": "kd", "setting": "BTK; free BTK over immobilized 1r", "value": 0.001361, "unit": "s⁻¹"}
    ]}
  ]
}
